The record followed here is US20130130985A1 (published 2013).

The chains behind the UniProt entries cited, without tags or fusion partners.
UniProt P37288, whole entry: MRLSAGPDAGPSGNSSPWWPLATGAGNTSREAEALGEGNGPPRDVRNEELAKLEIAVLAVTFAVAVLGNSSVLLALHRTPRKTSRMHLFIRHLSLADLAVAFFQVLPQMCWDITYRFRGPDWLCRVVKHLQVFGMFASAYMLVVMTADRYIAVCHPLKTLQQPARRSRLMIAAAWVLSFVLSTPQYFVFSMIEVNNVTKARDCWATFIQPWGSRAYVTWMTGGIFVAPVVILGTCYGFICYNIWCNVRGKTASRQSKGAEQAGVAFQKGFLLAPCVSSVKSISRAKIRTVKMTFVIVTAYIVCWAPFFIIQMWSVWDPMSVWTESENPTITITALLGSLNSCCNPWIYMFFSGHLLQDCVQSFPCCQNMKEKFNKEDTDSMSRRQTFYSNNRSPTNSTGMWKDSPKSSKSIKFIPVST

In general, Emax refers to the greatest response seen or fitted, relative to the assay's reference. One may read the half-life as the time in which the quantity being followed falls by half. The IC50 is the concentration that inhibits the measured activity by half. A higher IC50 goes with weaker potency. What is called EC50 is the concentration giving half of the maximal effect.

Data set [1] concerns the target T1, hOTR (Homo sapiens, UniProt P30559).
T1 sequence (P30559 1-389): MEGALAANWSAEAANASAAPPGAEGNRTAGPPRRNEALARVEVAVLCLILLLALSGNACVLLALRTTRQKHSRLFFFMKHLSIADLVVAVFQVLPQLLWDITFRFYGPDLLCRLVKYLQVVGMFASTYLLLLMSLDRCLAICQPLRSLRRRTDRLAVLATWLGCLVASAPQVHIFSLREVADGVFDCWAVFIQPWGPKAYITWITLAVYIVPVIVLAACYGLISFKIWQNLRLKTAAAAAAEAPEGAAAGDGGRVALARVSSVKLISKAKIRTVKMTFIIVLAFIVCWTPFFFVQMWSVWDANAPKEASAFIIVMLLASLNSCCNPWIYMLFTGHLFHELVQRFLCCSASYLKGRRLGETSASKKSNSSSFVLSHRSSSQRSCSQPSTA
Description: Functional IP-One HTRF assay. Format: cell-based. The following applies: for Emax: read-out: hOTR Emax. For orientation: Time-resolved FRET reads energy transfer from a long-lived donor to a nearby acceptor.

The target of data set [2] is T2, hV1aR (Homo sapiens, UniProt P37288). The data set is described as follows: Functional IP-One HTRF assay. Format: cell-based. The following applies: for Emax: read-out: hV1aR Emax.
Data set [3] concerns the target T1, hOTR. Description: Functional FLIPR assay (calcium signalling). Format: cell-based. Particulars: for Emax: read-out: hOTR Emax.
Data set [4] deals with T2, hV1aR. The data set is described as follows: Functional FLIPR assay (calcium signalling). Format: cell-based.
Data set [5] concerns the target T3, hV1bR (Homo sapiens, UniProt P47901).
T3 sequence (P47901 1-424): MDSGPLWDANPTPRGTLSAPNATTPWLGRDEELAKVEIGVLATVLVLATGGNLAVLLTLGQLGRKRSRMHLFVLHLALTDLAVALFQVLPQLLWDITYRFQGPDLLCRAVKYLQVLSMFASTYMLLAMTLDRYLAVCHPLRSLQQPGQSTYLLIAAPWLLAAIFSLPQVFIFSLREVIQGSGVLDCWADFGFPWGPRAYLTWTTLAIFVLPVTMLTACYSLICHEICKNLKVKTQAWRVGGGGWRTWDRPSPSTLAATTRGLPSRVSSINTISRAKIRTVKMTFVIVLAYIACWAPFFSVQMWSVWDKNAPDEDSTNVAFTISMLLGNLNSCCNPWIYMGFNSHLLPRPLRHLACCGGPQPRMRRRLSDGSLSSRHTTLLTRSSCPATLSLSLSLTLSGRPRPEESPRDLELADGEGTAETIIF
The data set is described as follows: Functional FLIPR assay (calcium signalling). Format: cell-based. The following applies: for Emax: read-out: hV1bR Emax.

Data set [6] is described as follows: Stability assay in rat plasma and human serum (metabolic half life).
The target of data set [7] is T3, hV1bR. Description: Radioligand binding assay, displacement of 3H-AVP, COS-1 membranes. Background: Displacement assays read how much labelled ligand stays bound in the presence of the test substance.
The target in data set [8] is T4, hV2R (Homo sapiens, UniProt P30518). Description: Radioligand binding assay, displacement of 3H-AVP, HEK293 membranes.
Data set [9] has as its target T3, hV1bR. Description: Functional IP-One HTRF assay. Format: cell-based.
Data set [10] has as its target T4, hV2R. Description: Functional cAMP accumulation assay. Format: cell-based. For orientation: cAMP levels reflect the balance of adenylyl cyclase and phosphodiesterase activity.
Data set [11] addresses T1, hOTR. Description: Radioligand binding assay, displacement of 3H-OT, COS-1 membranes.

As for `CC[C@H](C)[C@@H]1NC(=O)[C@H](Cc2ccc(O)cc2)NC(=O)[C@@H](N)C[Se]SC[C@@H](C(=O)N2CCC[C@H]2C(=O)N[C@@H](CC(C)C)C(=O)NCC(N)=O)NC(=O)[C@H](CC(N)=O)NC(=O)[C@H](CCC(N)=O)NC1=O` [[Se—S]-OT, [C1U]-OT], the Emax at hOTR [1] is 84 ± 6%; on hV1aR [2], 96 ± 19%; at hOTR [3], 85%; on hV1aR [4] (read-out: hV1aR Emax) it was 90%; at hV1bR [5], 82%. The same compound gave a half-life at 0.043 mM in [6] of 18.6 ± 3 h.

`CC[C@H](C)[C@@H]1NC(=O)[C@H](Cc2ccc(O)cc2)NC(=O)[C@@H](N)C[Se][Se]C[C@@H](C(=O)N2CCC[C@H]2C(=O)N[C@@H](CC(C)C)C(=O)NCC(N)=O)NC(=O)[C@H](CC(N)=O)NC(=O)[C@H](CCC(N)=O)NC1=O` [[Se—Se]-OT, [C1,6U]-OT]: the IC50 on hV1bR [7] was determined as 1760 ± 188 nM; at hV2R [8], 3350 ± 804 nM. Besides, the EC50 at hV1bR [9] (hV1bR EC50, IP-One assay, COS-1) was 510 ± 172 nM; on hV1bR [5], 7.75 nM. For the same compound, the Emax on hV1bR [9] (read-out: hV1bR Emax) amounted to 103 ± 12%; on hV1bR [5] it was 82%.

On to `CC[C@H](C)[C@@H]1NC(=O)[C@H](Cc2ccc(O)cc2)NC(=O)[C@@H](N)C[Se][Se]C[C@@H](C(=O)N2CCC[C@H]2C(=O)N[C@@H](CC(C)C)C(=O)NCC(=O)O)NC(=O)[C@H](CC(N)=O)NC(=O)[C@H](CCC(N)=O)NC1=O` [[Se—Se]-OT-OH, [C1,6U]-OT-OH], for which the concentration giving a half-maximal response (EC50) at hV1aR [2] is greater than 100000 nM; on hV1aR [4], greater than 100000 nM; at hV2R [10] (hV2R EC50, cAMP assay, HEK293) it was 495 nM. Besides, the Emax on hV2R [10] (read-out: hV2R Emax) was 114 ± 46%.

Turning to `CC[C@H](C)[C@@H]1NC(=O)[C@H](Cc2ccc(O)cc2)NC(=O)[C@@H](N)CS[Se]C[C@@H](C(=O)N2CCC[C@H]2C(=O)N[C@@H](CC(C)C)C(=O)NCC(N)=O)NC(=O)[C@H](CC(N)=O)NC(=O)[C@H](CCC(N)=O)NC1=O` [[S—Se]-OT, [C6U]-OT], the Emax came out at 55 ± 9% on hOTR [1], 67 ± 20% at hV1aR [2], 82% on hOTR [3] and 73% on hV1bR [5].

For `CC[C@H](C)[C@@H]1NC(=O)[C@H](Cc2ccc(O)cc2)NC(=O)[C@@H](N)C[Te][Te]C[C@@H](C(=O)N2CCC[C@H]2C(=O)N[C@@H](CC(C)C)C(=O)NCC(N)=O)NC(=O)[C@H](CC(N)=O)NC(=O)[C@H](CCC(N)=O)NC1=O` [[Te—Te]-OT, [Cys1,6Tec]-Oxytocin], the IC50 at hOTR [11] was found to be 8 nM. The EC50 was 13.3 ± 11 nM on hOTR [1], greater than 10000 nM at hV1aR [2], 11.3 ± 7.5 nM on hOTR [3] and 4280 ± 3380 nM at hV1aR [4]. Further, the figures for the Emax on hOTR [1] and at hOTR [3] were 98% and 86%, respectively.
